Target: HAUSP^62–205 (HAUSP TRAF domain) (UniProt Q93009 62-205)
Assay: ITC

Sequences of proteins named here, by UniProt entry; tags and fusion partners are left off. Residues count along the entry.
UniProt Q93009, 62-205: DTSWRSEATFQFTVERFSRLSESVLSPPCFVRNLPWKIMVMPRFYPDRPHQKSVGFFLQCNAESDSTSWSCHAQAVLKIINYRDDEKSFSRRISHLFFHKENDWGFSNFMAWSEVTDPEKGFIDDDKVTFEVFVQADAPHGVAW

B1: vIRF4^202–216 peptide (vif1) (peptide)
peptide: SVWIPVNEGASTSGM
  Kd: 0.39 µM

B2: vIRF4^209–216 peptide (peptide)
peptide: EGASTSGM
  Kd: 9.57 µM

Source: PMC3589550 (Nature structural & molecular biology, 2011)
